{"source": "patent US11472875", "key": {"[1]": {"system": "CM1-CM2 substrate 2003"}, "[2]": {"system": "CM1-CM2 substrate 2005"}}, "data": [{"substance": "human u-PA", "values": [{"measurement": "uPA kinetics, fold increase as compared to substrate 2001", "setting": "[1]", "result": "in the range of about 3- to 4-fold"}, {"measurement": "uPA kinetics, fold increase as compared to substrate 1004/LP′/0001", "setting": "[2]", "result": "in the range of about 3- to 4-fold"}]}]}
